The values below are quoted from earlier work in patent publication US20130005592A1, “METHODS AND COMPOSITIONS FOR PREDICTING CANCER THERAPY RESPONSE” (Board of Regents of the University of Texas System, priority 2009, published 2013).

The subject of this data set is HER2-overexpressing patients.

On to trastuzumab, for which, under “HER2-overexpressing patients”, the “patients who respond well” value was “about 35%”. Also, the “patients showing severe side effects including heart problems” value (patients treated with trastuzumab) is listed as “roughly 5%”.
